Experiments:
Rattus norvegicus [1] = organism: Rattus norvegicus; test: Binding of [3H]diprenorphine to rat striatal membranes was evaluated and receptor binding capacity was determined.; settings: Striatum, Membrane
Rattus norvegicus [2] = organism: Rattus norvegicus; test: Binding of [3H]diprenorphine to rat brain membranes was evaluated and receptor binding capacity was determined.; settings: Membrane

## CO[C@]12CC[C@@]3(C[C@@H]1C(C)(C)O)[C@H]1Cc4ccc(O)c5c4[C@@]3(CCN1CC1CC1)[C@H]2O5
Rattus norvegicus [1]
  Bmax (fM (mg of protein)-1): 284
Rattus norvegicus [2]
  Bmax (fM (mg of protein)-1): 209
